Results on 2 substances are retold here after US6835807B1, “Drug complex and drug delivery system” (Daiichi Pharmaceuticals Co., Ltd., priority 1998, dated 2004).

The nature of series [1]: Release of the drug compound from the drug complex in plasma (Example 8). The format is in vitro ADME. To be noted: 37° C., 50 μg/ml, after 20 hours. As to the method: (§1) (50 μg/ml). […] The released amount of the drug is expressed in percentage of the released amount of the drug to the amount of the drug in the drug complex used.
The test system of series [2] is Meth A tumor-bearing mice. Kind of series: Maximum tolerated dose of the drug complexes of Examples 5, 6 and 7 (Example 9). To be noted: single administration on the 13th day. The format is in vivo, BALB/c mice. As to the method:
Meth A cells were transplanted into BALB/c mice to prepare Meth A tumor-bearing mice. On the 13th day, the drug complexes obtained in Examples 5, 6 and 7 were singly administered. After the administration, measurement of the body weight and observation of toxic death were made with time, and the maximum body-weight reduction rate and mortality were calculated, which are shown in Table 5. The dose is expressed in terms of the weight of anhydrous free base of DX-8951.
On the basis of the dose in which body weight reduction and death were observed, MTD of each complex were judged as follows.

The nature of series [3]: Release of the drug compound from the drug complex in Meth A homogenate (Example 8). The format is in vitro ADME, murine. To be noted: for released amount of the drug (DX-8951), percentage of the drug in the drug complex used: 37° C., 50 μg/ml, after 20 hours; for release of the drug in words: weakly acidic homogenate. The protocol:
as §1

Series [4] can be described thus: Release of the drug compound from the drug complex in buffer (Example 8). The format is physicochemical. The settings on record: for released amount of the drug (DX-8951), percentage of the drug in the drug complex used: 37° C., 50 μg/ml, after 20 hours. As to the method: as §1
The next series concerns Meth A cells. Kind of series: Antineoplastic activity of the complexes of Examples 1, 5 and 6 (Example 10). The format is in vivo, BALB/c mice. To be noted: singly administered on the 7th day. The protocol: Meth A cells were transplanted into BALB/c mice to prepare Meth A tumor-bearing mice. On the 7th day after the transplantation, the drug complexes shown in Examples 1, 5 and 6 were singly administered, respectively. The weight of the tumor was measured on the 21th day to evaluate the inhibitory activity on the tumor and the toxicity. In the table, * represents significance in Dunnet's test (*** p<0.001, ** P<0.01, * P<0.05), the dose is expressed in terms of the weight of anhydrous free base of DX-8951, and IR represents the diminution rate of the tumor.

Turning to “Carboxymethyldextran polyalcohol-Gly-Gly-Gly-Phe-NH-p-C6H4—CH2—O—CO-DX-8951 [Example 6]”, the “released amount of the drug (DX-8951), percentage of the drug in the drug complex used” value is listed as 0.51% in series [1]; 15.48% in series [3] (Meth A homogenate (pH 4.5)); 4.97% in series [3] (Meth A homogenate (pH 5.5)); 1.78% in series [3] (Meth A homogenate (pH 6.5)); 0.12% in series [4] (Buffer (pH 4.5)); 0.19% in series [4] (Buffer (pH 5.5)). Besides, the “released amount of the drug (DX-8951), percentage of the drug in the drug complex used” value in series [4] (Buffer (pH 6.5)) amounted to 0.23%. Further, the “BWLmax, maximum body-weight reduction rate” value is listed as 2.4% in series [2] (1.25 mg/kg); 22.1% in series [2] (2.5 mg/kg); 24.0% in series [2] (5 mg/kg); 27.1% in series [2] (10 mg/kg); <0% with Meth A cells (0.15625 mg/kg); <0% in the series on Meth A cells (0.3125 mg/kg). Besides, the “BWLmax, maximum body-weight reduction rate” value was <0% in the series with Meth A cells (0.625 mg/kg), <0% with Meth A cells (1.25 mg/kg) and 25.9% in the series with Meth A cells (2.5 mg/kg). Also, the “N, mice died/mice used” value in series [2] (1.25 mg/kg) is 0/3; in series [2] (2.5 mg/kg), 0/3; in series [2] (5 mg/kg), 3/3; in series [2] (10 mg/kg), 3/3; with Meth A cells (0.15625 mg/kg), 0/6; with Meth A cells (0.3125 mg/kg), 0/6. Further, the “N, mice died/mice used” value is listed as 0/6 in the series on Meth A cells (0.625 mg/kg), 0/6 in the series with Meth A cells (1.25 mg/kg) and 3/6 in the series on Meth A cells (2.5 mg/kg). Moreover, the “day when the maximum body-weight reduction was observed” value turned out to be 14 days in series [2] (1.25 mg/kg); 20 days in series [2] (2.5 mg/kg); 18 days in series [2] (5 mg/kg); 18 days in series [2] (10 mg/kg); 13 days with Meth A cells (2.5 mg/kg). Moreover, in series [2] (dose as DX-8951 anhydrous free base), the MTD (in general, the highest dose tested that stayed within the study's limit of toxicity) worked out at 2.5 mg/kg. Moreover, the “release of the drug in words” value is given as “rapidly released” in series [3] and “hardly released” in series [4] (buffer).
As for “carboxymethyldextran polyalcohol-Gly-Gly-NH-p-C6H4—CH2—O—CO-DX-8951 [Example 7]”, the “released amount of the drug (DX-8951), percentage of the drug in the drug complex used” value in series [1] is listed as 0.12%; in series [3] (Meth A homogenate (pH 4.5)), 0.44%; in series [3] (Meth A homogenate (pH 5.5)) it was 0.37%; in series [3] (Meth A homogenate (pH 6.5)), 0.55%; in series [4] (Buffer (pH 5.5)), 0.12%. For the same substance, the “N, mice died/mice used” value in series [2] (2.5 mg/kg), in series [2] (5 mg/kg), in series [2] (10 mg/kg), in series [2] (20 mg/kg) and in series [2] (30 mg/kg) was 3/3 each time. Further, the “release of the drug in words” value in series [3] was “rapidly released”.
